For 28 compounds, inhibition results are on record in PubChem BioAssay AID602449 (Sanford-Burnham Center for Chemical Genomics, 2012).

As a reminder, the inhibition is the relative decrease from the control value, in per cent.

SMILES strings stand for the structures. Only a part is listed here, and it is no random draw. Active and inactive are the calls of the source.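 Rule for the calls: active = inhibition of 50% or more, scaled per plate between neutral and stimulator controls; inactive = the rest.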

A short description of the assay: mitochondrial permeability transition pore inhibitors, primary screen, biochemical, isolated mouse mitochondria, absorbance (AID 602449).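 Note: 0% = DMSO wells given calcium and 100% = 1 mM EGTA wells.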 The settings on record: Ca2+ swelling absorbance, 30 min, at 10 µM, stronger effect = higher value.
Take `CCOC(=O)Nc1cccc([As](=O)(O)O)c1`: the inhibition is inactive: -0.2%.

For `O=P(Nc1ccccn1)(c1cccc2ccccc12)c1cccc2ccccc12`, the inhibition was inactive: -1.4%.

As to `Cc1cc(SC(NC=O)C(Cl)(Cl)Cl)ncn1` (stereo not drawn), the inhibition is inactive: -0.4%. With `O=[N+]([O-])c1ccc(Nc2ccc(Oc3ccc([N+](=O)[O-])cc3[N+](=O)[O-])cc2)c([N+](=O)[O-])c1`, the inhibition was inactive: 0.3%.

Regarding `CCOC(=O)Nc1ccc([As](=O)(O)O)c(O)c1`, the inhibition is inactive: 0.8%. Under `O=C(O)C(O)c1ccc(N(CCCl)CCCl)cc1` (stereo not drawn) stands inactive: 0.2%. Under `CC1CCNP(=O)(N(CCCl)CCCl)O1` (stereo not drawn) stands inactive: -1.7%; under `COP(=O)(OC)N1CC1c1ccccc1` (stereo not drawn), inactive: 0.6%; under `CCCCOc1ccc(C(=O)NCC2(N3CCCCC3)CCCCC2)cc1OC`, inactive: -0.9%. For `Cc1cc(SC(NC(=O)c2ccccc2)C(Cl)(Cl)Cl)nc(C(C)C)n1` (stereo not drawn) the value was inactive: -0.2%; for `O=C(OC1CN2CCC1CC2)c1cccc([N+](=O)[O-])c1` (stereo not drawn), inactive: 0.5%; for `CSc1ccc(Nc2c([N+](=O)[O-])cc([N+](=O)[O-])cc2[N+](=O)[O-])cc1`, active: 70.7%.

With `CCOC(=O)c1ccc(NC(=O)C(C)(CCl)SC)cc1` (stereo not drawn), the inhibition was inactive: 1.7%. For `CCC(C)N(CC(C)C)C(=S)SC(NC(C)=O)C(Cl)(Cl)Cl` (stereo not drawn) the value was inactive: 0.3%. As for `COP1(=S)c2c(C)nn(CCC#N)c2N=C(c2ccc(F)cc2)N1C` (stereo not drawn), the inhibition was inactive: -0.5%. For `COC(=O)C1(C)COP(=O)(N2CCCC2)OC1` (stereo not drawn) the value was inactive: 1.6%; for `O=C(O)C(=O)c1ccc(N(CCCl)CCCl)cc1`, inactive: 0.1%. Under `O=C(COc1ccccc1)OC1CN2CCC1CC2` (stereo not drawn) stands inactive: -0.1%; under `O=C(Nc1ccncc1[N+](=O)[O-])c1ccc([N+](=O)[O-])cc1[N+](=O)[O-]`, inactive: 1%; under `O=[N+]([O-])c1cc(Oc2ccc([N+](=O)[O-])cc2C(F)(F)F)cc([N+](=O)[O-])c1`, inactive: 2.3%. For `COc1ccc(N/C(=N/P(=O)(N2CCOCC2)N2CCOCC2)N2CCOCC2)cc1` the value was inactive: 0%; for `Cc1c2c(nc3ccccc13)SC(C(Cl)Cl)C2` (stereo not drawn), inactive: 2.7%. `O=C(OC1CN2CCC1CC2)C12CC3CC(CC(C3)C1)C2` (stereo not drawn): the inhibition is inactive: 20.5%. Under `Cc1cc(=O)[nH]c(N[N+](=O)[O-])n1` stands inactive: -0.2%; under `O=P1(N(CCCl)CCCl)OCCCN1CCCl` (stereo not drawn), inactive: -0.9%; under `O=P1(N(CCCl)CCCl)Nc2ccccc2N1`, inactive: -0.1%. For `COc1ccc2nc(NP(=O)(c3ccccc3)c3ccccc3)sc2c1` the value was inactive: 0.2%; for `COc1cc(I)ccc1[As](=O)(O)O`, inactive: 0.6%.
